Reference: US20130115216A1

Biological target: HLA-B35 (human)
Test: assembly assay, HLA-B35 recovery from T2-B35 cell lysate

C24 (EBNA3A458-466) (peptide)
C50: 0.8 µM
